The values below come from patent US20200270125A1.

Usually EC50 (read off the curve) stands for the concentration at which the effect is half-maximal.

For this experiment, the target named is recombinant human MASP-2 (CCP1-CCP2-SP fragment) (human) (UniProt O00187). Kind of experiment: ELISA: recombinant MASP-2 (CCP1-CCP2-SP) coated directly on the plate, A450.

As for OMS721 (antibody), the half-maximal effective concentration (EC50 (read off the curve)) is 0.06 nM.
